Test results reported in PMC12770939 (Clinical Cancer Research, 2025).

Test system: FGFR2-expressing cell lines
Settings: excess Bliss score, n=14 cell lines, Supplementary Fig. S11

With AZD4547 the “combination effect with inavolisib” value was “synergized”.
